Here are results for one molecule from publication PMC7292230 (Journal of medicinal chemistry, 2020).

Amino acid sequences for entries named in this document (tags omitted). A change or cut given only in a name is not applied to a line headed by its entry.
UniProt P78356: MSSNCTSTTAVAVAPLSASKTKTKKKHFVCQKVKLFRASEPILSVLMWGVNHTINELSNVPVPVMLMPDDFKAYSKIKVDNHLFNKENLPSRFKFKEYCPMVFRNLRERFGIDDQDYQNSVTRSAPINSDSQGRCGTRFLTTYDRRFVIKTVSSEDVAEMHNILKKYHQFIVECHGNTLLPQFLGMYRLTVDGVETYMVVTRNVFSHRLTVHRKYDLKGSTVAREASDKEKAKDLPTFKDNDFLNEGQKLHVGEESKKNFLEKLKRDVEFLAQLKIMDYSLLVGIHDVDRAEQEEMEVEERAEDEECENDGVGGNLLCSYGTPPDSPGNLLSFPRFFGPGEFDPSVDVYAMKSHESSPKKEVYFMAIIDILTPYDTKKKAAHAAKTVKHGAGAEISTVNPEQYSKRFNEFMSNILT
UniProt P48426: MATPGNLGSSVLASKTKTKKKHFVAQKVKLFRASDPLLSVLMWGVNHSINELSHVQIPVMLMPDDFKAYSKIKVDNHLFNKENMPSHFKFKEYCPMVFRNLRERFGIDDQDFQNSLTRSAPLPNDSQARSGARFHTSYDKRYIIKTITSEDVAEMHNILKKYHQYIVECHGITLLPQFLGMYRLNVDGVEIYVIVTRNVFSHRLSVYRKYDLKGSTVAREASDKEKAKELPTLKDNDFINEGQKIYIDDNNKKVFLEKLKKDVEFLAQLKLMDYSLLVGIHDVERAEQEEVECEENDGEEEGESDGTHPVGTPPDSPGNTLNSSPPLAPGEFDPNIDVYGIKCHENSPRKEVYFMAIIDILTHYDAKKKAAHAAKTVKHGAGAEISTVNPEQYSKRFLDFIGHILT

Molecules are shown by their SMILES.

One assay concerns the target PI5P4Kβ (Homo sapiens, UniProt P78356).
Another assay concerns the target PI5P4Kα (Homo sapiens, UniProt P48426).

For the molecule `CN(C)C/C=C/C(=O)Nc1ccc(C(=O)Nc2cccc(Nc3cc(-c4c[nH]c5ccccc45)ncn3)c2)cc1` [THZ-P1–2], at PI5P4Kβ, the “covalent modification (labeling) of PI5P4Kβ” value is listed as 63–87%. Moreover, the “covalent modification (labeling) of PI5P4Kα” value at PI5P4Kα is listed as 63–87%.
